Data on 1 compound can be found in patent US4130648A, “5-Fluorouracil derivatives and antitumor preparations containing the same” (Eisai Co., Ltd., priority 1976, dated 1978).

The term LD50 denotes the dose at which mortality reaches 50%. Read a low LD50 as greater toxicity.

The subject of data set [1] is Sarcoma-180 (S-180). Put plainly: Effect on growth of solid tumor by oral administration, S-180. It is filed as in vivo, mice (ICR/JCL, female). To be noted: S-180 solid tumor. As for the experimental part:
(3) Effect on growth of solid tumor by oral administration
1.8 × 10^6 cells of S-180 were implanted subcutaneously in ICR/JCL mice (female, 6-8 weeks old).
Each of the drugs was orally administered as a solution of safflower oil 3 hours after the implantation.
Safflower oil was administered as control for each of the drugs.
Twenty days after, the tumor weight was measured, and the ratio of the tumor weight to that of the control group (T/C %) was calculated.

Data set [2] is described as follows: in vivo. To be noted: mouse.

For the compound `O=c1[nH]c(=O)n(C2CCCO2)cc1F` (centres unmarked) [FT-207], in data set [1], the “ratio of the minimum effective dose to toxic dose (LD50)” value is reported as “about 1/10”. The LD50 at 504 h in data set [2] (ip) was found to be 800 mg/kg; in data set [2] (iv), 750 mg/kg; in data set [2] (po), 930 mg/kg; in data set [2] (sc), 830 mg/kg.
